According to patent US6593363B1, “Diterpene derivatives and anti-inflammatory analgesic agents comprising the same” (Sae Han Pharm. Co., Ltd., priority 1998, dated 2003):

Molecular target: T1, COX-2 (Ovis aries, UniProt P79208)
T1 construct: 3 Unit of COX-2 (Layman chemical) that is separated from sheep placenta and purified; purchased Layman chemical (sic); host or cells: sheep placenta (tissue-derived)
T1 sequence (P79208 17-603): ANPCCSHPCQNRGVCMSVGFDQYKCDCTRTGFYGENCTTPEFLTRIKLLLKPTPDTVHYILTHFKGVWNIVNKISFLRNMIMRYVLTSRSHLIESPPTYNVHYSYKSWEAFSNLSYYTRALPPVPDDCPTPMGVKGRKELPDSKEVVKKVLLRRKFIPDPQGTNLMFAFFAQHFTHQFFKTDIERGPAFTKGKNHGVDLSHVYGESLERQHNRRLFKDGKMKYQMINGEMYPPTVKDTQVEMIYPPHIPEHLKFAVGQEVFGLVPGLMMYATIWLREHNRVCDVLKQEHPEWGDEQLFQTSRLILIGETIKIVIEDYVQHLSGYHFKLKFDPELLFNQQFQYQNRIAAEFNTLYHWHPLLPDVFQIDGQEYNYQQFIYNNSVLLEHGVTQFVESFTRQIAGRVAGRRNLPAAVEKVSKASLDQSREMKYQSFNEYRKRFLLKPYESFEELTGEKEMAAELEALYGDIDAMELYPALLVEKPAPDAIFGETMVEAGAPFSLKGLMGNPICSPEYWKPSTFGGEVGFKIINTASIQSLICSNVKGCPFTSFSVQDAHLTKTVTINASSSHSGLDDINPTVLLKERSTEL
Experiment: Inhibition of PGE2 synthesis by inhibiting COX-2 activity (in vitro, TLC/autoradiography)
Type: biochemical
Conditions: 3 Unit COX-2 from sheep placenta, [1-14C] arachidonic acid, 37° C. for 20 min
Experimental: The inhibition effect of the novel derivatives against PGE2 synthesis was tested in vitro. […] The novel derivatives were synthesized from (−)-pimara-9(11), 15-diene-4-carboxylic acid, which is a diterpene compound isolated from root-bark of Acanthopanax Koreanum.
The mixture was stranded on ice for 5 min. To the mixture, the sample for assay of COX-2 activity was added, and then incubated on ice for 10 min. After preincubation, 0.02 μCi of [1-^14C] arachidonic acid, as an substrate, was added, and reacted at 37° C. for 20 min. For the termination of the reaction, 10 μl of 2 M HCl was added. Prostaglandin produced was extracted with ethylether twice. Two ethylether layers were integrated, and the solvent was evaporated at a 37° C. water-bath. […] PGE2 part of TLC plate developed was observed using autoradiography (PACKARD). The amount of PGE2 decreased by the sample was compared with reference, and then COX-2 inhibition activity of the sample was determined.

- IC50: 38.7 µM
Compound: C=CC1(C)CC=C2C(CCC3C(C)(CCCCC(=O)O)CCCC23C)C1 (stereo not drawn) [Example 35, 4-Carboxybutyl-(−)-pimara-9(11),15-diene]
